Test results published in US7611693B2, “Mechanism-based targeted pancreatic beta cell imaging and therapy” (Board of Regents, The Univerisity of Texas System, priority 2003, dated 2009).

Experiment: Animal studies: acute toxicity at the given doses
Format: in vivo
Excerpt: The present disclosure addresses at least in part some deficiencies in the prior art by providing novel DTPA-antidiabetic conjugates useful for imaging beta-cell function. Through binding of radiolabeled conjugates, such as ^99mTc-DTPA-antidiabetic conjugates, for example, to pancreatic beta receptors, detectable by gamma scintigraphy, pancreatic function is monitored. Four DTPA-antidiabetic conjugates have been synthesized and evaluated. […] These agents are labeled with isotopes in order to assess beta cell function in diabetic or insulinoma patients both pre- and post-treatment. These compositions and methods are useful to provide early diagnosis as well as monitoring of response of pancreatic disease during treatment.

**Q.** With DTPA-Glipizide as the substance, how does the acute toxicity read?
**A.** no acute toxicity
